According to patent publication US20060030602A1, “(S)-amlodipine malate” (Sepracor Inc., priority 2004, published 2006):

Key:
[1] = multiple-dose pharmacokinetic studies in dogs, oral capsule; details: dog, in vivo
Method: The pharmacokinetic parameters AUC and Cmax from three multiple-dose studies in male and female dogs were compared. The 28-day pharmacokinetic assessments were compared. […] All doses were adjusted for salt form so all doses are in terms of mg base/kg. An aliquot of each unknown, standard and control sample was analyzed on a high performance liquid chromatographic system equipped with a Positive-Ion mass spectrometer detector (condition tabled below in Table 10).

[2] = adhesion studies on tablet punches; format: physicochemical; details: punch wash assayed by HPLC
Method: Avicel PH 101 and each (S)-amlodipine salt were pre-screened through a 25-mesh sieve to delump the powders prior to blending. […] Approximately 500 mg was weighed into the ½-inch tablet die, a tablet punch was added and 0.2 metric tons of pressure was applied using a Carver press for 2-3 seconds. The tablet was then removed, and the surfaces of the tablet punches (concave, SRC) were washed with mobile phase (1 mL). The wash was then assayed by HPLC. Three measurements were made for each blend.

Adhesion, 5% (S)-Amlodipine salt in Avicel ([2]; 5% API blend with Avicel PH 101, 0.2 metric tons)	Adhesion, 25% (S)-Amlodipine salt in Avicel ([2]; 25% API blend with Avicel PH 101, 0.2 metric tons)	Substance	bioavailability compared to the maleate salt [1]
–	–	(S)-amlodipine L-malate	greater bioavailability than the maleate salt
1.6E−06 g (S)-amlodipine/cm^2	3.3E−06 g (S)-amlodipine/cm^2	Succinate	–
